In this assay the target is human mineralocorticoid receptor (MR) (Homo sapiens, UniProt P08235). Description: Cellular in vitro assay to determine the inhibitory MR activity (GAL4-MR chimera, luciferase reporter, CHO K1 cells). The conditions noted are these: read-out: MR IC50; recombinant CHO K1 cells, GAL4-MR ligand-binding domain chimera, agonist aldosterone, luciferase readout.

Chains of the proteins cited; added tags and fusions are not shown. Residues count along the entry.
UniProt P08235, 734-984 limits assumed: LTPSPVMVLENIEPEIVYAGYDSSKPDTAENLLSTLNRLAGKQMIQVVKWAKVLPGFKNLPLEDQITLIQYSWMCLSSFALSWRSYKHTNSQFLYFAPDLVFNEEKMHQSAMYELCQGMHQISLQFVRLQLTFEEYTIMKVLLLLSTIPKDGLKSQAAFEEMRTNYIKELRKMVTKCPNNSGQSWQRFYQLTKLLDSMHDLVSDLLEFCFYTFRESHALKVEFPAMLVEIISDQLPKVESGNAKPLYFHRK

Molecules are shown by their SMILES.

For `CCOc1nc(C)cc2c1C(c1ccc(C#N)cc1OC)C(C#N)=C(C)N2` (centres unmarked) [Example 35, 4-(4-Cyano-2-methoxyphenyl)-5-ethoxy-2,7-dimethyl-1,4-dihydro-1,6-naphthyridine-3-carbonitrile], the IC50 amounted to 55 nM.
The result for `CCOc1ncc(C)c2c1C(c1ccc(C#N)cc1OC)C(C#N)=C(C)N2` (centres unmarked) [Example 37, 4-(4-Cyano-2-methoxyphenyl)-5-ethoxy-2,8-dimethyl-1,4-dihydro-1,6-naphthyridine-3-carbonitrile] reads 25 nM.

The record behind these values is patent US8404709B2, “Substituted 4-aryl-1,4-dihydro-1,6-naphthyridines and use thereof” (Bayer Intellectual Property GmbH, priority 2007, dated 2013).
